# Laboratory results reported in ChEMBL document CHEMBL4052827, “Discovery of Tetrahydroisoquinoline-Containing CXCR4 Antagonists with Improved in Vitro ADMET Properties” (J Med Chem, 2018).
# Amino acid sequences for entries named in this document (tags omitted).
# UniProt P61073, whole entry: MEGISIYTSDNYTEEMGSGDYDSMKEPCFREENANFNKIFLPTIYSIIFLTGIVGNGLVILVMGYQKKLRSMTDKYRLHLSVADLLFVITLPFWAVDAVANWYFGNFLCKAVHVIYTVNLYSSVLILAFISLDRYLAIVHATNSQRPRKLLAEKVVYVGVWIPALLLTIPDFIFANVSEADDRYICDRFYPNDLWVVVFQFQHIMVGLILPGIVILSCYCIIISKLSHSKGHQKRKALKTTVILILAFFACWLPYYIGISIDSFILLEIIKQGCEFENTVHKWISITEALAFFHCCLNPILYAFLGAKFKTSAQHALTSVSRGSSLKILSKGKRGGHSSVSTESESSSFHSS
# Target: C-X-C chemokine receptor type 4 (Homo sapiens, UniProt P61073)
# Assay: Agonist activity at CXCR4 in human CCRF-CEM cells assessed as induction of Ca2+ flux measured for 90 secs by calcium dye-based fluorescence assay
# Type: functional, cell-based
compound,measurement,value
C(=C\CN(C[C@H]1Cc2ccccc2CN1)[C@H]1CCCc2cccnc21)/CNCc1ccncc1,EC50,> 30 µM
